Assay results published in patent US8907107B2 (Hae Therapeutics Limited, priority 2009, dated 2014).
“And” between values parts separate entries of the source, which are not always exact repeats. Equal values may be shown once. Blank lines part the entries; values can stand above or below the molecule they belong to.

Legend:
[1] = Fluorescence emission spectra and quantum yield; format: physicochemical; details: for λmax flu / λmax emiss.: 5 × 10^−7 M; for λmax emiss.: excitation 640 nm, slit widths 5 nm
[2] = Source text: A trace pH=6.0, B trace pH=9.0. Excitation at 640 nm, slit widths 10 nm, 5×10^−7 M in water/CrEL.
FIG. 6. […] Excitation at 640 nm, slit widths 20 nm, 5×10^−7 M in water/CrEL. INaCl=150 mmol/L.

[3] = UV-visible absorption spectra; format: physicochemical; details: 5 × 10^−6 M

Molecule: OC[C@H]1O[C@@H](n2cc(COc3ccc(-c4cc(-c5ccccc5)c5n4[B-](F)(F)[N+]4=C(c6ccc(O)cc6)C=C(c6ccccc6)C4=N5)cc3)nn2)[C@H](O)[C@@H](O)[C@H]1O [Compound 8a]
λmax flu ([1]; CH3OH): 716 nm

Molecule: BF2 Chelate of 4-{4-phenyl-5-[3-phenyl-5-(4-prop-2-ynyloxyphenyl)-pyrrol-2-ylideneamino]-1H-pyrrol-2-yl}phenol [Compound 2]
fluorescence signal at pH 9 ([2]; aqueous solutions, 729 nm): virtually complete suppression of fluorescence signal
fluorescence intensity differential between pH 6 and 8 ([2]; at λmax 729 nm in aqueous solutions): greater than 15 fold
apparent pKa ([2]; sigmoidal plot of pH versus fluorescence intensity, water/CrEL, NaCl 150 mmol/L): 6.9
isosbestic point ([2]; water/CrEL, 5×10^−6 M, UV-visible pH profile): 740 nm
new absorption band with increasing pH ([2]; water/CrEL, 5×10^−6 M, mono-deprotonated species): 775 nm
λmax abs ([3]; C7H8): 685 nm
λmax abs ([3]; CH3OH): 688 nm
λmax abs ([3]; CHCl3): 680 nm
λmax abs ([3]; H2O/CrEL): 700 nm
λmax flu ([1]; C7H8): 711 nm
λmax flu ([1]; CH3OH): 716 nm
fluorescence quantum yield Φf ([1]; CHCl3, 1 as standard): 0.37
λmax flu ([1]; CHCl3): 708 nm and 708^c nm
λmax flu ([1]; H2O/CrEL): 729 nm

λmax flu ([1]; CH3OH): 716 nm
Molecule: O=C(O)CCCn1cc(COc2ccc(C3=NC(=Nc4[nH]c(-c5ccc(O)cc5)cc4-c4ccccc4)C(c4ccccc4)=C3)cc2)nn1 [Compound 8b, 4-[4-(4-[5-[5-(4-Hydroxyphenyl)-3-phenyl-1H-pyrrol-2-ylimino]-4-phenyl-5H-pyrrol-2-yl]-phenoxymethyl)-[1,2,3]triazol-1-yl]butyric acid]

λmax emiss. ([1]; MeOH): 716 nm
Molecule: O=S(=O)(O)CCCOc1ccc(C2=[N+]3C(=Nc4c(-c5ccccc5)cc(-c5ccc(OCCCS(=O)(=O)O)cc5)n4[B-]3(F)F)C(c3ccccc3)=C2)cc1 [Compound 17]

λmax flu ([1]; CH3OH): 716 nm
Molecule: CC(C)(C)OC(=O)NCCn1cc(COc2ccc(C3=NC(=Nc4[nH]c(-c5ccc(O)cc5)cc4-c4ccccc4)C(c4ccccc4)=C3)cc2)nn1 [Compound 8c, {2-[4-(4-{5-[5-(4-Hydroxyphenyl)-3-phenyl-1H-pyrrol-2-ylimino]-4-phenyl-5H-pyrrol-2-yl}-phenoxymethyl)-[1,2,3]triazol-1-yl]ethyl}carbamic acid t-butyl ester]

λmax abs ([3]; ethanol): 688 nm
Molecule: COCCOCCOCCOc1ccc(-c2cc(-c3ccccc3)c3n2[B-](F)(F)[N+]2=C(c4ccc(OCCNC(=O)OC(C)(C)C)cc4)C=C(c4ccccc4)C2=N3)cc1 [Compound 9]

λmax emiss. ([1]; CHCl3): 711 nm
Molecule: O=C(O)COc1ccc(C2=[N+]3C(=Nc4c(-c5ccccc5)cc(-c5ccc(OCC(=O)O)cc5)n4[B-]3(F)F)C(c3ccccc3)=C2)cc1 [Compound 16]
